Source: ChEMBL document CHEMBL1932959, “5-HT₂c receptor selectivity and structure-activity relationship of N-methyl-N-(1-methylpiperidin-4-yl)benzenesulfonamide analogs” (Bioorg Med Chem Lett, 2012)

Tested on: 5-HT2A/5-HT2C selectivity (Homo sapiens)
Experiment: Selectivity ratio of IC50 for human 5HT2A receptor to IC50 for human 5HT2C receptor

Row | Structure (SMILES) | Ratio IC50
1 | CCCCOc1ccc(S(=O)(=O)N(C)C2CCN(C)CC2)cc1 | 1.4
2 | CCCc1ccc(S(=O)(=O)N(C)C2CCN(C)CC2)cc1 | 0.7
3 | CN1CCC(N(C)S(=O)(=O)c2ccc(I)cc2)CC1 | 0.21
4 | CN1CCC(N(C)S(=O)(=O)c2ccc(OC(F)(F)F)cc2)CC1 | < 0.25
5 | CN1CCC(N(C)S(=O)(=O)c2cccc(F)c2)CC1 | 0.77
6 | Cc1ccc(S(=O)(=O)N(C)C2CCN(C)CC2)cc1 | 11.9
7 | CN1CCC(N(C)S(=O)(=O)c2ccc(C(F)(F)F)cc2)CC1 | 0.3
8 | CN1CCC(N(C)S(=O)(=O)c2ccccc2Cl)CC1 | 2.7
